# Laboratory results from US12558356B2, “Immunophilin binding agents and uses thereof” (The Regents of the University of California, priority 2019, dated 2026).
# Amino acid sequences for entries named in this document (tags omitted).
# UniProt P62942, whole entry, looked up: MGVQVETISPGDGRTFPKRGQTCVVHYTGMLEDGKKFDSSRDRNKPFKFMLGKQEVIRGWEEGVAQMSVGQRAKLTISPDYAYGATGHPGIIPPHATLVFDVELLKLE
# Target: Src / HA-FKBP12 (Homo sapiens (Human), UniProt P12931+P62942)
# Conditions: Jurkat cell lysates
substance,measurement,value
"tacrolimus [FK506, reference compound]",Co-immunoprecipitation of Src with HA-FKBP12,not
